Laboratory results reported in US8680150B2, “Small molecule hematopoietic growth factor mimetic compounds that activate hematopoietic growth factor receptors” (Ligand Pharmaceuticals, Inc., priority 2009, dated 2014).

Test system: UT7/EPO Cell line
Assay: Cell proliferation assay in UT7/EPO cell line (ViaLight Plus)
Assay type: cell-based, human
Settings: compound at 10 uM; efficacy relative to EPO (100%); UT7/EPO cells expressing endogenous EPO receptor, starved of EPO overnight; 72 hours at 37° C.
Protocol: The primary testing for the exemplified compounds was performed in UT7/EPO Cell line. UT7/EPO is human leukemia cell line, obtained from Dr. Norio Komatsu (Blood, Vol 82 (2), pp 456-464, 1993). These cells express endogenous EPO receptor and are dependant upon EPO for growth and proliferation. Briefly, the cells were starved of EPO overnight and plated in 96 or 384 well plates. The compounds were added to the cells at 10 uM concentration. The plates were then incubated at 37° C. for 72 hours. The proliferative effect of the compounds was measured by a commercially available kit from Lonza (ViaLight Plus).

For `COc1cccc(/C=N/NC(=O)c2cc(-c3ccc4ccccc4c3)n[nH]2)c1` [Compound 146, 3-(2-Naphthylpyrazolyl-5-)carboxyl(3-methoxybenzylidene)hydrazide], the “Activity (%)” value was 4.2%.
